Targets include DRB1*0404 (Homo sapiens, UniProt P01903+P01911, A100R/A169T/F76Y/I96L/K127E/L162R/M171V/N62H/P40V/Q125Y/R42H/S133A/S149N/S66Y/V209L/W38E); DRB1*0701 (Homo sapiens, UniProt P01903+P01911, A100R/A102G/A103Q/D57E/D86V/E43K/F76Y/K127E/L162R/M171V/P40G/Q125H/Q99D/R33Q/R42Y/R54Q/S133A/S66F/T210M/V115G/Y107V/Y59L/Y89S); DRB1*0802 (Homo sapiens, UniProt P01903+P01911, A100R/A103L/A169T/F76Y/H45Y/I96F/K41T/L162R/M171V/P40S/Q125H/Q178H/Q39Y/Q99D/R218S/R42G/S66Y/V115G/W38E); DRB1*1302 (Homo sapiens, UniProt P01903+P01911, A100E/A169T/K41T/L162R/M171V/P40S/Q125H/Q178H/Q39Y/Q99D/R42S/S66N/T262R/V115G/W38E/Y61H); DRB1*1501 (Homo sapiens, UniProt P01903+P01911); DRB1*0101 (Homo sapiens, UniProt P01903+P01911, A100R/D57E/F55L/F60I/F76Y/I96L/L162R/M171V/P40L/Q125E/R42F/V115G/Y59C); DRB1*0301 (Homo sapiens, UniProt P01903+P01911, A100K/A102G/A103R/A169T/F55Y/I96L/K41T/L162R/M171V/P40S/Q125H/Q178H/Q39Y/R42S/S66N/T106N/T262R/W38E/Y61H); DRB1*0901 (Homo sapiens, UniProt P01903+P01911, A100R/A103E/D57H/D86V/F55Y/F60I/F76Y/I96F/K127E/L162R/M171V/P40D/Q125H/Q99R/R33Q/R42F/S133A/S66N/T210M/V115G/W38K/Y107V/Y59G/Y89S); DRB1*1101 (Homo sapiens, UniProt P01903+P01911, A100R/A169T/A87E/I96F/K41T/L162R/M171V/P40S/Q125H/Q178H/Q39Y/Q99D/R42S/S66Y/T262R/V115G/W38E); DRB1*0405 (Homo sapiens, UniProt P01903+P01911, A100R/A169T/D86S/F76Y/I96L/K127E/L162R/M171V/N62H/P40V/Q125Y/R42H/S133A/S149N/S66Y/V115G/V209L/W38E).

Holding throughout (test): biochemical
Common to all, as to type: binding

Setting [1] is: read-out: Binding Affinity (nM) DRB1*1101.

Like-named read-outs stand apart in the source and are kept apart here.

Regarding `CC[C@H](C)[C@H](NC(=O)[C@@H](NC(=O)[C@H](CCCCN)NC(=O)[C@@H](N)CCCCN)C(C)C)C(=O)N[C@@H](CCC(N)=O)C(=O)N[C@@H](CC(C)C)C(=O)N[C@@H](CO)C(=O)N[C@@H](CCCNC(=N)N)C(=O)N[C@@H](CCCCN)C(=O)N[C@H](C(=O)N[C@@H](Cc1ccccc1)C(=O)N[C@@H](CC(=O)O)C(=O)N[C@H](C(=O)N[C@@H](CCC(=O)O)C(=O)N[C@@H](Cc1ccc(O)cc1)C(=O)O)[C@@H](C)O)[C@@H](C)O` [NS3 381-395], the IC50 at DRB1*0404 amounted to 16300 nM; at DRB1*0701 it was 5.39 µM; against DRB1*0802, 1.9 µM; on DRB1*1302 it was 2.51 µM; at DRB1*1501, 2.17 µM.

For the compound `CC(C)C[C@H](NC(=O)[C@H](CCCCN)NC(=O)CNC(=O)[C@H](CC(C)C)NC(=O)[C@@H](N)Cc1c[nH]cn1)C(=O)N[C@@H](CCC(=O)O)C(=O)N[C@@H](CC(C)C)C(=O)N[C@@H](CC(=O)O)C(=O)N[C@@H](Cc1ccccc1)C(=O)N[C@@H](CC(N)=O)C(=O)N[C@@H](Cc1ccc(O)cc1)C(=O)N[C@@H](CS)C(=O)N[C@@H](CCC(=O)O)C(=O)NCC(=O)N[C@H](C(=O)O)[C@@H](C)O` [NS1 269-283], the IC50 came out at 6.34 µM at DRB1*0101; 18 nM against DRB1*0301; 2520 nM on DRB1*0404; 11 µM on DRB1*0701; 1.12 µM at DRB1*0802; 16.7 µM against DRB1*0901. The IC50 was greater than 20000 nM on DRB1*1101 (setting [1]), 1.91 µM against DRB1*1302 and 4.16 µM against DRB1*1501.

For the compound `CC[C@H](C)[C@H](N)C(=O)N[C@@H](CO)C(=O)N[C@@H](Cc1ccc(O)cc1)C(=O)NCC(=O)NCC(=O)NCC(=O)N[C@@H](Cc1c[nH]c2ccccc12)C(=O)N[C@@H](CCCNC(=N)N)C(=O)N[C@@H](CC(C)C)C(=O)N[C@@H](CO)C(=O)N[C@@H](C)C(=O)N[C@@H](CCC(N)=O)C(=O)N[C@@H](Cc1c[nH]c2ccccc12)C(=O)N[C@@H](CCC(N)=O)C(=O)N[C@@H](CCCCN)C(=O)O` [NS3 77-91], the IC50 on DRB1*0101 was 0.139 µM; on DRB1*0301 (read-out: Binding Affinity (nM) DRB1*0301), greater than 20000 nM; against DRB1*0404, 2210 nM; against DRB1*0405, 1.43 µM; against DRB1*0802, 3.6 µM; on DRB1*1101 it was 286 nM. Besides, the IC50 on DRB1*1302 was found to be 6.61 µM.

In the case of `CC[C@H](C)[C@H](NC(=O)[C@H](Cc1ccccc1)NC(=O)[C@H](CO)NC(=O)[C@H](CO)NC(=O)[C@H](CC(N)=O)NC(=O)[C@@H](N)CCC(N)=O)C(=O)N[C@H](C(=O)N[C@@H](CC(=O)O)C(=O)NCC(=O)N1CCC[C@H]1C(=O)N[C@@H](CC(N)=O)C(=O)N[C@H](C(=O)N1CCC[C@H]1C(=O)N[C@@H](CCC(=O)O)C(=O)N[C@@H](CS)C(=O)O)[C@@H](C)O)[C@@H](C)CC` [NS1 129-143], the IC50 against DRB1*0101 stood at 2.57 µM; at DRB1*0701, 8.58 µM; on DRB1*0802, 7.66 µM; against DRB1*0901 it was 3.58 µM; against DRB1*1101, 6260 nM; at DRB1*1302, 1.77 µM. This compound showed an IC50 at DRB1*1501 of 4.39 µM.

For the compound `CC[C@H](C)[C@H](N)C(=O)NCC(=O)N[C@@H](CCCCN)C(=O)N[C@@H](CCSC)C(=O)N[C@@H](Cc1ccccc1)C(=O)N[C@@H](CCC(=O)O)C(=O)N[C@@H](C)C(=O)N[C@H](C(=O)N[C@@H](C)C(=O)N[C@@H](CCCNC(=N)N)C(=O)NCC(=O)N[C@@H](C)C(=O)N[C@@H](CCCNC(=N)N)C(=O)N[C@@H](CCCNC(=N)N)C(=O)N[C@@H](CCSC)C(=O)O)[C@@H](C)O` [Envelope 396-410], the IC50 is 0.0049 µM at DRB1*0101; 424 nM on DRB1*0301; greater than 20000 nM on DRB1*0404 (read-out: Binding Affinity (nM) DRB1*0404); 6.95 µM at DRB1*0405; 0.106 µM at DRB1*0802; 0.04 µM against DRB1*0901. Moreover, the IC50 against DRB1*1101 was found to be 39 nM; on DRB1*1302, 1.6 µM; at DRB1*1501, 0.258 µM.

Regarding `CC[C@H](C)[C@H](NC(=O)CNC(=O)[C@H](CO)NC(=O)[C@H](CCCCN)NC(=O)[C@H](CCCCN)NC(=O)[C@H](Cc1ccc(O)cc1)NC(=O)[C@H](CC(C)C)NC(=O)[C@H](CC(=O)O)NC(=O)[C@H](Cc1ccccc1)NC(=O)[C@H](CCC(=O)O)NC(=O)[C@@H](N)CCCCN)C(=O)N[C@H](C(=O)N[C@@H](CCC(=O)O)C(=O)N[C@H](C(=O)N[C@@H](CC(=O)O)C(=O)N[C@@H](CCCNC(=N)N)C(=O)N[C@H](C(=O)O)[C@@H](C)O)C(C)C)[C@@H](C)O` [NS5 23-39], the IC50 on DRB1*0101 came out at 1.87 µM; against DRB1*0301 it was 3690 nM; at DRB1*0405 it was 1.52 µM; on DRB1*0901 it was 1.76 µM; at DRB1*1101 it was 2480 nM; against DRB1*1501, 2.54 µM.

`CC(C)C[C@H](NC(=O)[C@H](CCCCN)NC(=O)CNC(=O)[C@H](CO)NC(=O)[C@@H](NC(=O)[C@@H](NC(=O)[C@@H](NC(=O)[C@@H](NC(=O)[C@H](CCCNC(=N)N)NC(=O)[C@H](CC(C)C)NC(=O)[C@H](CO)NC(=O)[C@@H]1CCCN1C(=O)CNC(=O)[C@H](CCCNC(=N)N)NC(=O)[C@@H](N)[C@@H](C)O)[C@@H](C)O)[C@@H](C)O)[C@@H](C)O)C(C)C)C(=O)O` [NS1 293-307]: the IC50 against DRB1*0101 came to 2.6 µM; on DRB1*0404 it was 3310 nM; at DRB1*0405, 3.01 µM; on DRB1*0701, 0.083 µM; on DRB1*0802 it was 12.3 µM; at DRB1*0901, 17.1 µM. Besides, the values for the IC50 on DRB1*1101 (setting [1]), at DRB1*1302 and against DRB1*1501 were greater than 20000 nM, 14.5 µM and 11.3 µM, respectively.

`CC[C@H](C)[C@H](NC(=O)[C@H](CS)NC(=O)[C@H](Cc1ccccc1)NC(=O)[C@H](CCC(N)=O)NC(=O)[C@H](CC(N)=O)NC(=O)[C@H](CC(N)=O)NC(=O)[C@H](CCCCN)NC(=O)[C@H](CC(C)C)NC(=O)[C@H](Cc1c[nH]c2ccccc12)NC(=O)[C@@H]1CCCN1C(=O)[C@H](CCC(=O)O)NC(=O)[C@@H](NC(=O)[C@H](CCSC)NC(=O)[C@H](CCCCN)NC(=O)[C@@H](N)CC(C)C)C(C)C)C(=O)N[C@@H](CCCCN)C(=O)N[C@H](C(=O)O)C(C)C` [NS5 165-181]: the IC50 on DRB1*0101 stood at 0.41 µM; against DRB1*0301 it was 2940 nM; at DRB1*0405, 8.48 µM.

For the compound `CC[C@H](C)[C@H](NC(=O)[C@H](Cc1ccc(O)cc1)NC(=O)CNC(=O)[C@H](CC(C)C)NC(=O)[C@H](CCCCN)NC(=O)[C@H](Cc1c[nH]cn1)NC(=O)[C@@H](N)CC(C)C)C(=O)N[C@@H](CC(C)C)C(=O)N[C@@H](CCCNC(=N)N)C(=O)N[C@@H](CC(=O)O)C(=O)N[C@H](C(=O)N[C@@H](CO)C(=O)N[C@@H](CCCCN)C(=O)N[C@H](C(=O)N1CCC[C@H]1C(=O)NCC(=O)NCC(=O)O)[C@@H](C)CC)[C@@H](C)CC` [NS5 511-527], the IC50 came to 2270 nM at DRB1*0404, 0.705 µM on DRB1*0701 and 3.88 µM against DRB1*0901.

`CSCC[C@H](NC(=O)[C@H](Cc1ccc(O)cc1)NC(=O)[C@H](CCCNC(=N)N)NC(=O)[C@H](CC(C)C)NC(=O)[C@@H]1CCCN1C(=O)[C@@H]1CCCN1C(=O)[C@H](CC(C)C)NC(=O)[C@@H](NC(=O)[C@H](CS)NC(=O)[C@H](CO)NC(=O)[C@H](CCCNC(=N)N)NC(=O)[C@@H](N)CS)[C@@H](C)O)C(=O)NCC(=O)N[C@@H](CCC(=O)O)C(=O)N[C@@H](CC(=O)O)C(=O)O` [NS1 313-327]: the IC50 on DRB1*0101 is 1.98 µM; at DRB1*0701, 13.7 µM; on DRB1*0802, 5.24 µM; on DRB1*0901, 18.3 µM; against DRB1*1302, 16.4 µM; against DRB1*1501, 1.87 µM.

The values above are taken from article PMC3794980, “Identification of Conserved and HLA Promiscuous DENV3 T-Cell Epitopes” (PLoS Neglected Tropical Diseases, 2013).
